Where a name gives a salt, the structure may show the parent alone.
System: GRK1
Settings: tubulin substrate

Fc1ccc([C@@H]2CCNC[C@H]2COc2ccc3c(c2)OCO3)cc1 [paroxetine, paroxetine hydrochloride]
lower potency towards GRK1 compared to GRK2: 60 fold

Reference: article PMC3500392 (ACS chemical biology, 2012)
